Assay results reported in ChEMBL document CHEMBL1128075, “Chemical modification and structure-activity relationships of pyripyropenes; potent, bioavailable inhibitor of acyl-CoA: Cholesterol O-acyltransferase (ACAT)” (Bioorg Med Chem Lett, 1995).

Target: T1, Sterol O-acyltransferase 2 (Rattus norvegicus, UniProt Q7TQM4)
T1 sequence (Q7TQM4 whole entry): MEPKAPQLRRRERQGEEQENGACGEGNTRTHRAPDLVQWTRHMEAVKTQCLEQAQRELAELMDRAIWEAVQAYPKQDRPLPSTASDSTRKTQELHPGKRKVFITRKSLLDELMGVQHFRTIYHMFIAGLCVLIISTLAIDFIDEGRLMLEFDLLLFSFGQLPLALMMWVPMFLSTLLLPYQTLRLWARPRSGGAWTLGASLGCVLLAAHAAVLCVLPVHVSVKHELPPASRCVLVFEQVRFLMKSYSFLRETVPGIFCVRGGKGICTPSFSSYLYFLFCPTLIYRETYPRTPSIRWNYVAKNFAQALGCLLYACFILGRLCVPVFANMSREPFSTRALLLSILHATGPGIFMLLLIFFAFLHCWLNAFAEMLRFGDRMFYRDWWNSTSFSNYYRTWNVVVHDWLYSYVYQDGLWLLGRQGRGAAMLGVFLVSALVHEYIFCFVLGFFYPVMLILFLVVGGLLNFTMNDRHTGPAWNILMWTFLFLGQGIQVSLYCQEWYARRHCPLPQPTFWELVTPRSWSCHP
Experiment: Inhibitory activity against acyl-CoA:cholesterol O-acyltransferase (ACAT)

IC50: 85 nM
SMILES: CC(=O)OCC1(C)C2C[C@H](OC(=O)c3ccccc3)[C@@]3(C)Oc4cc(-c5cccnc5)oc(=O)c4[C@H](O)C3[C@@]2(C)CC[C@@H]1OC(C)=O (single isomer, unassigned)
